For one compound, Activity results are on record in ChEMBL document CHEMBL4819001, “Discovery of tetrahydroquinolines and benzomorpholines as novel potent RORγt agonists” (Eur J Med Chem, 2021).

Calls of active or inactive are those of the source. No cut-off for these calls is given here.

The target in assay [1] is T1, Nuclear receptor ROR-beta (Homo sapiens) (UniProt Q92753).
T1 sequence (whole entry): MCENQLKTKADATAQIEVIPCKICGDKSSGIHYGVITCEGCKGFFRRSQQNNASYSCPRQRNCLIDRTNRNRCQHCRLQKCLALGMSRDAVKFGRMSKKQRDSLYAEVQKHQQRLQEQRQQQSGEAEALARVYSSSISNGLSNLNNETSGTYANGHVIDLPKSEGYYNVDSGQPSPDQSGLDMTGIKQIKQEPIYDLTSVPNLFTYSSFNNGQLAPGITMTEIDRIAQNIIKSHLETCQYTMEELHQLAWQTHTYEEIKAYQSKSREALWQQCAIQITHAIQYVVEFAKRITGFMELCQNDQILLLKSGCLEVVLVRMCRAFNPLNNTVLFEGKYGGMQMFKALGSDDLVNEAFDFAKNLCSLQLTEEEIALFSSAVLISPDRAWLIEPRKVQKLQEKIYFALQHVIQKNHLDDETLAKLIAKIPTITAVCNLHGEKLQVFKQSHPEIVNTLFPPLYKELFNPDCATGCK
As to the kind of experiment: Binding affinity to RORbeta (unknown origin).

For assay [2], the target named is T2, Nuclear receptor ROR-alpha (Homo sapiens) (UniProt P35398).
T2 sequence (whole entry): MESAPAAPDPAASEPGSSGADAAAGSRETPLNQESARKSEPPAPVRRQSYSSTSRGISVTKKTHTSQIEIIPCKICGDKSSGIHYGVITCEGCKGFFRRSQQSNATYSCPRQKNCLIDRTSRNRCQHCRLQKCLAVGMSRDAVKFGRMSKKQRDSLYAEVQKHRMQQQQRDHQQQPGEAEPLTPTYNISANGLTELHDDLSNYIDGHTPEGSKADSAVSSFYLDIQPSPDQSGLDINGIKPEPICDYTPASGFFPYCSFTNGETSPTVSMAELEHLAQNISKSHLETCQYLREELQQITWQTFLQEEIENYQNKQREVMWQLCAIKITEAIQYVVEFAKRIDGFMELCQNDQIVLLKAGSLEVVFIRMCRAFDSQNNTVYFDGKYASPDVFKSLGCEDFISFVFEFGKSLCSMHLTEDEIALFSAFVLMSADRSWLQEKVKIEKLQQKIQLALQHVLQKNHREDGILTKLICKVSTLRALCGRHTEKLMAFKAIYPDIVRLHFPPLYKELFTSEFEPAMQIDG
As to the kind of experiment: Binding affinity to RORalpha (unknown origin).

Turning to `CCS(=O)(=O)c1ccc(CC(=O)Nc2ccc(CCN3CCCc4ccc(CC(C)C)cc43)cc2)cc1`, the result in assay [1] and in assay [2] was inactive.
